Molecular target: T1, Phex524 (CYP71CU1) (Sinopodophyllum hexandrum, UniProt A0A0N9HTU1)
T1 sequence (A0A0N9HTU1 1-493): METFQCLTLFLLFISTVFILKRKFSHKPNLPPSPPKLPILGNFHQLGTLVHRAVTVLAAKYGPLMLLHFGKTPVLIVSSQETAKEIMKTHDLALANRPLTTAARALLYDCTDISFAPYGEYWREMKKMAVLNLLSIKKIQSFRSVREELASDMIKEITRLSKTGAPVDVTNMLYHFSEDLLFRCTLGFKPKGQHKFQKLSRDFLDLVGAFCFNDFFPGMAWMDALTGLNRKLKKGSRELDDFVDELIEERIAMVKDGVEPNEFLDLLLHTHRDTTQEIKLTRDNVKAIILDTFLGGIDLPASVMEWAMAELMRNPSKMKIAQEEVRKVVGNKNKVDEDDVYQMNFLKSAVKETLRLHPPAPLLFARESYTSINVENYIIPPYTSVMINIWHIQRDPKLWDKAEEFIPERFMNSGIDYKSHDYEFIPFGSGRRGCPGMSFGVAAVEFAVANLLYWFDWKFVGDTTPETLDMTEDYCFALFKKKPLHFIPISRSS
Experiment: yeast microsome turnover, LC-MS
Assay type: biochemical
Settings: NADPH; product (−)-5′-desmethyl-yatein

COc1ccc(C[C@H]2C(=O)OC[C@@H]2Cc2ccc3c(c2)OCO3)cc1OC [(−)-5′-desmethoxy-yatein]
yeast microsome turnover, LC-MS: incubation of (−)-5′-desmethoxy-yatein with CYP71CU1 and the reduced form of nicotinamide adenine dinucleotide phosphate
